Molecular target: αvβ3 purified from 293 cells overexpressing αvβ3 (Homo sapiens, UniProt P05106+P06756)
Assay: SPAV3 binding assay (scintillation proximity)
Conditions: read-out: SPAV3 IC50
Text: • 1. Wheat germ agglutinin Scintillation Proximity Beads (SPA): Amersham • 2. Octylglucopyranoside: Calbiochem • 3. HEPES: Calbiochem • 4. NaCl: Fisher • 5. CaCl2: Fisher • 6. MgCl2: SIGMA • 7. Phenylmethylsulfonylfluoride (PMSF): SIGMA • 8. Optiplate: PACKARD • 9. (S)-3-(4-(2-(6-aminopyridin-2-yl)ethyl)benzamido)-2-((4-(iodo-^125I)phenyl)sulfonamido)propanoic acid as found in WO0046215 (specific activity 500-1000 Ci/mmole) • 10. Test compound • 11. Purified integrin receptor: αvβ3 was purified from 293 cells overexpressing αvβ3 (Duong et al., J. Bone Min. Res., 8:S378, 1993) according to Pytela (Methods in Enzymology, 144:475, 1987) • 12. Binding buffer: 50 mM HEPES, pH 7.8, 100 mM NaCl, 1 mM Ca^2+/Mg^2+, 0.5 mM PMSF • 13. 50 mM octylglucoside in binding buffer: 50-OG buffer
• 1. Pretreatment of SPA beads: • 500 mg of lyophilized SPA beads were first washed four times with 200 ml of 50-OG buffer and once with 100 ml of binding buffer, and then resuspended in 12.5 ml of binding buffer. • 2. Preparation of SPA beads and receptor mixture • In each assay tube, 2.5 μl (40 mg/ml) of pretreated beads were suspended in 97.5 μl of binding buffer and 20 ml of 50-OG buffer. […] Plates were counted using PACKARD TOPCOUNT • 5. % inhibition was calculated as follows: • A=total counts • B=nonspecific counts • C=sample counts […]

The chains behind the UniProt entries cited, without tags or fusion partners. Residues count along the entry.
UniProt P05106, 27-788 limits assumed: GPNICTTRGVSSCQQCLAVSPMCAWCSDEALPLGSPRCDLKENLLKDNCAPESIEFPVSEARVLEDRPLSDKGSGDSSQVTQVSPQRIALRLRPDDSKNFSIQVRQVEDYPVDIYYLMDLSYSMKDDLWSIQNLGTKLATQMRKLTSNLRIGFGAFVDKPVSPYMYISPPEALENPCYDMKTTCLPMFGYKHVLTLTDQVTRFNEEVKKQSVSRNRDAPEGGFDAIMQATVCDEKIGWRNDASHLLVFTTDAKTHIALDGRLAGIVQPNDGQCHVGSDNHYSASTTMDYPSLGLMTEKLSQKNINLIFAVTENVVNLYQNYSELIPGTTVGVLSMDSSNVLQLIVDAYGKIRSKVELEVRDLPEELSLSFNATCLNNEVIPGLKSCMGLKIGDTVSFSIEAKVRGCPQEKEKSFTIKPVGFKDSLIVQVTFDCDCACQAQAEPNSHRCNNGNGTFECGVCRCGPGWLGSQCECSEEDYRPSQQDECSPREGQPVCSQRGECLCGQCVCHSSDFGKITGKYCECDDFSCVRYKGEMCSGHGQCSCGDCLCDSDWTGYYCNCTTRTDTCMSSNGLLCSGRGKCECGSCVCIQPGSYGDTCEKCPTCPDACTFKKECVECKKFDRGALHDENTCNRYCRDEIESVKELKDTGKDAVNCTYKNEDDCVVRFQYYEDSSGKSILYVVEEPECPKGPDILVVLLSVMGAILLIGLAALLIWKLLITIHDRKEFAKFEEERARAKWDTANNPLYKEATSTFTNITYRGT
UniProt P06756, 31-889 limits assumed: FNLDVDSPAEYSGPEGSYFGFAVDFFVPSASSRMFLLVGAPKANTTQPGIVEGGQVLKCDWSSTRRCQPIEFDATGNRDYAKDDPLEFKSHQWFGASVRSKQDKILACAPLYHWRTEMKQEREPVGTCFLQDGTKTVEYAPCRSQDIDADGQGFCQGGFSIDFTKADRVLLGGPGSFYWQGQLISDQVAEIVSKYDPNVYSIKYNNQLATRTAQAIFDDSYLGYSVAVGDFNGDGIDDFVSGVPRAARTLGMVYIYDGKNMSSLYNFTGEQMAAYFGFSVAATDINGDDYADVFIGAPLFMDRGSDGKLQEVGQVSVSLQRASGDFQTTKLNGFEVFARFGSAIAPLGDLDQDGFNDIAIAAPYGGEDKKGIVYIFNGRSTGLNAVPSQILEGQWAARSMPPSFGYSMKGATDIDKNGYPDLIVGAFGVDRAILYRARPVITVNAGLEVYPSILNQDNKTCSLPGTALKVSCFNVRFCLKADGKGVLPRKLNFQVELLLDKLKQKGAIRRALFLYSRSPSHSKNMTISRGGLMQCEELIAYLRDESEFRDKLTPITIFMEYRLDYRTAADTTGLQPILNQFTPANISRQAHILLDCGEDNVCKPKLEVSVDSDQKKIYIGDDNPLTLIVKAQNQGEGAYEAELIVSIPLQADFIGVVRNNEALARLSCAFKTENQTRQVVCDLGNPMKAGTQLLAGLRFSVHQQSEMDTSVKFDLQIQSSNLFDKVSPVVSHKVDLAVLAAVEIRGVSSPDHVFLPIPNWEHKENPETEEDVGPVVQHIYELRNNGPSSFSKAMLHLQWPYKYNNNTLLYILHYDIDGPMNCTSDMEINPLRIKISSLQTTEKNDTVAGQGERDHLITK
UniProt P06756, 891-1048 partner limits assumed: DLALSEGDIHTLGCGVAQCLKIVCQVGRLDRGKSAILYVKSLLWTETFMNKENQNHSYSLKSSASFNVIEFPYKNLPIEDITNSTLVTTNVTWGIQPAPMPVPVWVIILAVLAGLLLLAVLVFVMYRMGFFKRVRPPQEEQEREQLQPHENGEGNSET

IC50: 0.1 nM
Structure (SMILES): COc1ccc([C@H](CC(=O)O)N2CCN(CCCc3ccc4c(n3)NC(C)CC4)C2=O)cn1 (stereo partly shown)
